According to BindingDB's records for 11828463 (University of NeuchÂTel, 2001):
pKi: −log10 of the molar value.

By UniProt entry, the sequences of proteins in these tests, tags left out. Residues count along the entry.
UniProt P0ACB2, 2-324 limits assumed: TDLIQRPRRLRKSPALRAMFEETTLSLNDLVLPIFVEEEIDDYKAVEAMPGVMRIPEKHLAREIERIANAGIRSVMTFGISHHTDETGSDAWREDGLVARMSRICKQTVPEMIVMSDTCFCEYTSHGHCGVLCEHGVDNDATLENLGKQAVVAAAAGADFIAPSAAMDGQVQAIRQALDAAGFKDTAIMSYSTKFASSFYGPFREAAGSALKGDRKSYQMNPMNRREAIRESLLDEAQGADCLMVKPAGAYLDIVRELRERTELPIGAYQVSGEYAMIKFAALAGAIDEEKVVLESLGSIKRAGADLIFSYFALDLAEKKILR

Target: Delta-aminolevulinic acid dehydratase (Escherichia coli (strain K12), UniProt P0ACB2)
Test: PBGS Assay
Settings: pH 8.1
Excerpt: The PBGS assay is a colorimetric assay based on the reaction between PBG and 4-dimethylaminobenzaldehyde (Ehrlich's reagent).

SMILES: O=C(CC[N+](=O)[O-])CNC(=O)CC[N+](=O)[O-]
- pKi: 4.52
